Assay results as given in publication PMC9738927, “A Newly Identified Monoterpenoid-Based Small Molecule Able to Support the Survival of Primary Cultured Dopamine Neurons and Alleviate MPTP-Induced Toxicity In Vivo” (Molecules, 2022).

Test system: MPTP-lesioned C57BL/6 mice
Test: DA and DOPAC levels in midbrain and striatum by HPLC-ED after MPTP lesion
Type: in vivo
Procedure: Neurochemical analyses via HPLC-ED were conducted as described before. Microdissected samples of the striatum (ST) and midbrain were homogenized in 300 and 400 µL of cold 0.6 M HClO4, respectively, using a motor-driven grinder (Z359971, Sigma-Aldrich, USA) and the homogenate was spun for 15 min at 12,000 rpm (+4 °C). The pellet was diluted in 1 mL of 0.1 M NaCl and used for protein quantitation by Bradford (Bio Rad, USA) according to the manufacturer’s protocol. The clear supernatant was diluted twice with pure water and used for assay of DA and […] (DOPAC) by HPLC on Luna C18(2) column (5 μm particle size, L × I.D. 75 × 4.6 mm, Phenomenex, Torrance, CA, USA) with electrochemical detection (750 mV, DECADE II™ Electrochemical Detector; Antec, The Netherlands). The standard mixes containing 1, 2, and 3 ng of DA and DOPAC were repeatedly assayed throughout the entire procedure and used to plot the calibration curves for each substance. The areas of peaks were estimated using LabSolution LG/GC software version 5.54 (Shimadzu Corporation, Japan) and calibrated against the calibrated curves for corresponding standards. The contents of DA and DOPAC were expressed nanogram (ng) per milligram (mg) of protein assayed by Bradford.

## N[C@@H](Cc1ccc(O)c(O)c1)C(=O)O [L-DOPA, reference compound]
  DOPAC level in ST: significantly increased
